Here are results for one molecule from ChEMBL document CHEMBL1126088, “Conformational analysis of dopamine D-2 receptor antagonists of the benzamide series in relation to a recently proposed D-2 receptor-interaction model” (J Med Chem, 1992).

Protein sequences, listed by entry. Tags and fused reporters are not part of them.
UniProt P61169, whole entry: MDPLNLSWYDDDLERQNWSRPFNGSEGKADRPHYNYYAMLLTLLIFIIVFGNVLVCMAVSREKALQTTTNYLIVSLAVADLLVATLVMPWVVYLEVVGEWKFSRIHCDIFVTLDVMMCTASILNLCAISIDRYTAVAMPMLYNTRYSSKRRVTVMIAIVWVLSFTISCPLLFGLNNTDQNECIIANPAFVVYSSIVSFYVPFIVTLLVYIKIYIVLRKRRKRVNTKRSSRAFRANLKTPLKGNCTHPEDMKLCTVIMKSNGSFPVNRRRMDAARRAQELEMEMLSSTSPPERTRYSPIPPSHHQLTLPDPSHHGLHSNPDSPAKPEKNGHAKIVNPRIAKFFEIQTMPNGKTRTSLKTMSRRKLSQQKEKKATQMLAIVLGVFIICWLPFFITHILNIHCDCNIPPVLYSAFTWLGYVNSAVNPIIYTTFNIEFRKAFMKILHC

For assay [1], the target named is T1, D(2) dopamine receptor (Rattus norvegicus, UniProt P61169). Description: Compound was evaluated for binding affinity towards DA D-2 receptor using radioligand [3H]SPI.
Assay [2] concerns the target T1, D(2) dopamine receptor. Description: Inhibitory concentration required for displacing radioligand [3H]SPI from DA D-2 receptor.

Each structure is given as a SMILES string.

As usually defined, the Ki is a dissociation constant, usually derived from enzyme kinetics or from competition with a known ligand. Read a low Ki as higher affinity. The term IC50 denotes the concentration that inhibits the measured activity by half. A lower IC50 goes with higher potency. The molecule `CCN(CC)CCNC(=O)c1cc(Cl)c(N)cc1OC` [METOCLOPRAMIDE] gave an inhibition constant (Ki) at D(2) dopamine receptor [1] of 104 nM. The same molecule registered an IC50 at D(2) dopamine receptor [2] of 820 nM.
